By UniProt entry, the sequences of proteins in these tests, tags left out. Where a name states a change or a piece, a line headed by the entry shows the natural chain unless it says otherwise.
UniProt P30878: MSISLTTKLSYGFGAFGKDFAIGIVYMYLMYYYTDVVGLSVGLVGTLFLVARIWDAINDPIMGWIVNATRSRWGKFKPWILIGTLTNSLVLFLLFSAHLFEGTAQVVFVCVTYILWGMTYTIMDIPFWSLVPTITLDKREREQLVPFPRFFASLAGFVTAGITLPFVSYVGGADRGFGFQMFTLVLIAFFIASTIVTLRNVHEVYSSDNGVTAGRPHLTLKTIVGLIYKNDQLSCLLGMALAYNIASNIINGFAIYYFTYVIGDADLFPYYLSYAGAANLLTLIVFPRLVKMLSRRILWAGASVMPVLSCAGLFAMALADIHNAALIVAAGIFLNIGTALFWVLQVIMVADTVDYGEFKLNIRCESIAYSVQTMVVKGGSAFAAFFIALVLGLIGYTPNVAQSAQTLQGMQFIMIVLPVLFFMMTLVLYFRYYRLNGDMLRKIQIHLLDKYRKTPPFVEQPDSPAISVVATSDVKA

In PMC8200842 (The Journal of General Physiology, 2021):

Target: Salmonella typhimurium melibiose permease MelB (MelBSt), wild type (Salmonella typhimurium, UniProt P30878 1-476)
Experiment: ITC

B1: E. coli glucose-specific phosphotransferase EIIA^Glc, unphosphorylated form (natural protein)
chain: MGLFDKLKSLVSDDKKDTGTIEIIAPLSGEIVNIEDVPDVVFAEKIVGDGIAIKPTGNKMVAPVDGTIGKIFETNHAFSIESDSGVELFVHFGIDTVELKGEGFKRIAEEGQRVKVGDTVIEFDLPLLEEKAKSTLTPVVISNMDEIKELIKLSGSVTVGETPVIRIKK
Kd: 4.31 µM
